Results on 3 compounds are retold here after patent US11236069B2, “KIF18A inhibitors” (AMGEN INC., priority 2018, dated 2022).

The chains behind the UniProt entries cited, without tags or fusion partners. Residues count along the entry.
UniProt Q8NI77, 1-467: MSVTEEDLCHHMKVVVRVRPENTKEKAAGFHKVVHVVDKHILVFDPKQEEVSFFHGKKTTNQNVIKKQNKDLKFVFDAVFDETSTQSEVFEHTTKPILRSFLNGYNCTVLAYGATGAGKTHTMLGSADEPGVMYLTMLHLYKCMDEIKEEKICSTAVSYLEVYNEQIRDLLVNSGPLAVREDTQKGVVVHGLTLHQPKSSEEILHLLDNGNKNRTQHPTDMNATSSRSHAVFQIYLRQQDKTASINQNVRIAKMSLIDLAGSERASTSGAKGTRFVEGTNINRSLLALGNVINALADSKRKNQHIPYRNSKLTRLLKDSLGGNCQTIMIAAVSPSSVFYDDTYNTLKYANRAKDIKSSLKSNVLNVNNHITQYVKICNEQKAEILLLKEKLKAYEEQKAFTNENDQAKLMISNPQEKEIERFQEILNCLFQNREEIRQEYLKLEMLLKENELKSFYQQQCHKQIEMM

Molecules are shown by their SMILES.

Broadly, the IC50 is the concentration at which inhibition is half-maximal.

This experiment addresses Recombinant human KIF18A (1-467 His-tagged) protein (Homo sapiens (Human), UniProt Q8NI77). Briefly: KIF18A Enzyme Assay: microtubule-stimulated ATPase activity (ADP-Glo). The conditions noted are these: read-out: KIF18A ATPase IC50; 30 nM KIF18A, 30 μg/mL pig microtubules, ATP at Km 75 μM, ADP-Glo luminescence. On the technique in general: ADP-Glo turns the ADP formed in a reaction into a luminescent signal.
As to `Cc1cc(NC(=O)c2ccc(S(=O)(=O)CCO)cc2N2CCC3(CC2)CC3)nc(N2CCC(F)(F)CC2)n1` [Example 12, N-(2-(4,4-difluoropiperidin-1-yl)-6-methylpyrimidin-4-yl)-4-((2-hydroxyethyl)sulfonyl)-2-(6-azaspiro[2.5]octan-6-yl)benzamide], the IC50 came out at 76 nM. The same measure for `Cc1cc(NC(=O)c2ccc(C(N)=O)cc2N2CCC3(CC2)CC3)nc(N2CCC(F)(F)CC2)n1` [Example 20]: 119 nM. The same measure for `Cc1cc(NC(=O)c2ccc(S(=O)(=O)C(C)(C)CO)cc2N2CCC3(CC2)CC3)nc(N2CCC(F)(F)CC2)n1` [Example 14, N-(2-(4,4-Difluoropiperidin-1-yl)-6-methylpyrimidin-4-yl)-4-((1-hydroxy-2-methylpropan-2-yl)sulfonyl)-2-(6-azaspiro[2.5]octan-6-yl)benzamide]: 122 nM.
